The source of these data is PubChem BioAssay AID1918990.

SMILES strings stand for the structures. Only a part is listed here, and it is no random draw. The source made the active and inactive calls.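 The calls were made as follows: active = replicate mean overnight rise in green fluorescent reporter signal, 3 or more SD over negative controls; inactive = the rest.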

This assay can be described thus: fixK promoter GFP reporter activation – B. multivorans, primary screen (AID 1918990). To be noted: 18 h, stronger effect = higher value.
On to `CN(CCCl)CCCl`, for which the z-score was inactive: -5.2.
